Assay results published in patent US6090786A, “Serine proteases, their activity and their synthetic inhibitors” (priority 1994, dated 2000).

Sequences of proteins named here, by UniProt entry; tags and fusion partners are left off.
UniProt P27487, whole entry: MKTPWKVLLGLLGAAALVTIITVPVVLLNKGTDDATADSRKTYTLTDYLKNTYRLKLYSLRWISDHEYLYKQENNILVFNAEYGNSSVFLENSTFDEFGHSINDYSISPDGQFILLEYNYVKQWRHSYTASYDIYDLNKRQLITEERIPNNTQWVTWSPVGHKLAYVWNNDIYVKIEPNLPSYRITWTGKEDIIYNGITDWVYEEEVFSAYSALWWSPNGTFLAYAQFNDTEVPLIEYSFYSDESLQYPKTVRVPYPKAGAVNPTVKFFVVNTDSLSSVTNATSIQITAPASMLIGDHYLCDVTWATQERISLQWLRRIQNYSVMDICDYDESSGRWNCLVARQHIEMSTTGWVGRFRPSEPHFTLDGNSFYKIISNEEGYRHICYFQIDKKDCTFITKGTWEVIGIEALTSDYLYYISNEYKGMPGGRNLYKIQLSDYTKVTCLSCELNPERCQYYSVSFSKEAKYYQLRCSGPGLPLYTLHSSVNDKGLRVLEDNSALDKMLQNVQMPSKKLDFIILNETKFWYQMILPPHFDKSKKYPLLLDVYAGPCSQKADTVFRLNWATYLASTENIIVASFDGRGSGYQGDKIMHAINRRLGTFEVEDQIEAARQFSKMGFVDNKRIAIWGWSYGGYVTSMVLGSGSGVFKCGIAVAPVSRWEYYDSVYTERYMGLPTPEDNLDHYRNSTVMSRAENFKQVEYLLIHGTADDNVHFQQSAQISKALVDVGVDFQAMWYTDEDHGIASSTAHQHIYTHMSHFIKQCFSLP

Target: T1, DPPIV (Homo sapiens, UniProt P27487)
T1 construct: from tissue; host or cells: prostasomes from human seminal plasma, purified on immobilized adenosine deaminase
Assay type: biochemical
Conditions: pH 8.3

SMILES	K+ (second order rate constant)
Cl.N[C@@H](Cc1ccccc1)C(=O)N1CCC[C@H]1P(=O)(Oc1ccccc1)Oc1ccccc1 [Phe-Pro^P -(OPh)2, Diphenyl (R)-1-[(S)-phenylalanyl]pyrrolidine-2-phosphonate hydrochloride]	36
Cl.N[C@@H](Cc1ccc(F)cc1)C(=O)N1CCC[C@H]1P(=O)(Oc1ccccc1)Oc1ccccc1 [pF-Phe-Pro^P -(OPh)2, Diphenyl (R)-1-[(S)-p-fluorophenylalanyl]pyrrolidine-2-phosphonate hydrochloride]	40
